The values below come from PubChem BioAssay AID504615 (Sanford-Burnham Center for Chemical Genomics, 2011).

This is a selection; strong and weak results do not stand in their true shares. Calls of active or inactive are those of the source.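 The calls were made as follows: active = signal rise of 40% or more at 20 µM, treated as a fluorescence artifact; inactive = the rest.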

The test in a line: Rh110 fluorescence interference by putative Apaf-1 inhibitors, confirmation, artefact control for Apaf-1 inhibitor project, biochemical, 20 µM (AID 504615). The note with it: quenched caspase reaction, at 20 µM, active compounds read high.
On to `CCc1nc2c(n1)c1c(non1O)c1c2no[n+]1[O-]`, for which the activation (fluorescence interference) was inactive: -2.81%.
